## AlphaSeq binding of Ab-14 light chain variants to a spike HR2 peptide

Data: MIT Lincoln Laboratory AlphaSeq set, Engelhart et al. 2022, doi:10.1038/s41597-022-01779-4, as distributed in FLAb.

All variants were tested on one target, the spike HR2 peptide PDVDLGDISGINAS (SARS-CoV-2).

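The parent was found by panning a naive human phage display library on the peptide. Library AAYL50 holds single substitutions and randomly drawn double and triple substitutions in the CDRs. The scFvs were displayed on barcoded MATa yeast, the peptide on MATalpha yeast. Mating (16 h, 30 °C) was followed by selection of diploids and sequencing of their barcodes. Each replicate has its own calibration line, from reference interactions of the BCL2 family. The assay was run in three technical replicates.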

Each scFv is VH, the linker GGGGSGGGGSGGGGS, VL, as in the parent Ab-14, and differs from it in the CDRs of the light chain only.
VH: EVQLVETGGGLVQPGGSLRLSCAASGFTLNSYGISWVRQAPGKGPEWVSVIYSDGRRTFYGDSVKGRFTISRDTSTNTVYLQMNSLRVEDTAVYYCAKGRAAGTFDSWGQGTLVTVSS
VL: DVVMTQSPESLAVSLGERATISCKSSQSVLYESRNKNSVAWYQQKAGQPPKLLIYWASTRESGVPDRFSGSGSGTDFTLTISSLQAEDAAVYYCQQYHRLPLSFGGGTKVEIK

Substitutions are numbered in sequence along the VL above, starting at 1 (not Kabat). The read-out is the apparent dissociation constant on a log10 scale (nM): the lower, the stronger. An entry "nd" has no value in the source: the pair was not observed among the diploids in that replicate. This suggests poor binding but is not conclusive. Nonspecific signal, from three strains lacking the peptide, appeared in 18% of pairings of library AAYL50, centred on 4.19 (5% of these signals below 2.99); values are not corrected for it. The control count says in how many pairings with the empty strains this scFv gave a signal.

Read-out 3.55, nd, 3.77 (controls 0 of 9), from T59P R60T L100Y.
Read-out nd, nd, nd (controls 2 of 9), from N35H V39Q.
Read-out nd, 3.55, nd (controls 1 of 9), from K36F S38C R99Y.
Read-out 0.48, 0.93, 0.83 (controls 2 of 9), from R34W W56E S103I.
Read-out 4.08, 3.48, 3.34 (controls 1 of 9), from W56L A57K R99E.
Read-out nd, nd, nd (controls 0 of 9), from K24N R60Y R99L.
Read-out 2.61, 1.73, 2.08 (controls 1 of 9), from Q27E Q96K P101C.
Read-out 2.20, 2.40, 2.79 (controls 2 of 9), from Q27V R34C A57S.
Read-out nd, nd, nd (controls 0 of 9), from R60N E61K Q95V.
Read-out nd, nd, nd (controls 1 of 9), from E32K R60G H98W.
Read-out 5.02, 4.99, nd (controls 3 of 9), from A40T H98V P101S.
Read-out nd, 4.75, 4.60 (controls 3 of 9), from S33I R60T L102I.
Read-out nd, nd, nd (controls 0 of 9), from N35Y N37S R60Q.
Read-out nd, nd, nd (controls 4 of 9), from K36P V39S A40Y.
Read-out nd, nd, nd (controls 0 of 9), from L30F S38T A57I.
Read-out 3.60, 2.83, 4.95 (controls 1 of 9), from L30K R60K H98C.
Read-out 2.08, 2.19, 2.50 (controls 0 of 9), from K36F Q96Y L100C.
Read-out nd, nd, nd (controls 2 of 9), from S33Q A57H Q95E.
Read-out 1.84, 1.70, 2.18 (controls 0 of 9), from Q27E S58A H98I.
Read-out nd, nd, nd (controls 1 of 9), from S33F Q95C L102Q.
Read-out nd, nd, 4.25 (controls 1 of 9), from S25K L30D R34L.
Read-out nd, nd, nd (controls 0 of 9), from S28K Q95K P101A.
Read-out 3.55, 3.73, 4.17 (controls 2 of 9), from V29N R60A S62A.
Read-out nd, nd, 3.14 (controls 0 of 9), from E32N A57N E61G.
Read-out nd, nd, nd (controls 0 of 9), from S26Y W56C S58Q.
Read-out nd, 3.78, 5.08 (controls 3 of 9), from N35C H98M L102H.
Read-out nd, nd, nd (controls 0 of 9), from N35K Y97M.
Read-out 0.63, 0.85, 0.86 (controls 1 of 9), from Q27S V29H S103V.
Read-out 1.59, 1.20, 1.28 (controls 5 of 9), from Q96F L100W L102F.
Read-out 1.88, 1.89, 1.93 (controls 0 of 9), from Q27G S28G Q95Y.
Read-out nd, nd, 3.38 (controls 2 of 9), from S33Q R99D L100A.
Read-out 2.30, 3.13, 2.72 (controls 4 of 9), from N37Q E61G S103N.
Read-out nd, 3.88, 5.98 (controls 1 of 9), from Q27E K36V R99W.
Read-out 2.52, 3.22, 2.35 (controls 0 of 9), from S28T K36H S58R.
Read-out 0.74, 0.81, 1.01 (controls 0 of 9), from Q27R E32D S62T.
Read-out nd, 3.67, nd (controls 2 of 9), from S25E R60G S103L.
Read-out nd, nd, nd (controls 4 of 9), from A57G R60S Q95I.
Read-out 0.69, 0.79, 0.66 (controls 1 of 9), from S25V N37H T59Y.
Read-out nd, nd, 3.51 (controls 2 of 9), from K36P T59G P101E.
Read-out nd, nd, nd (controls 0 of 9), from R60M Y97M.
Read-out 0.11, 0.57, 0.26 (controls 3 of 9), from S25A E32Y W56M.
Read-out 0.63, 0.78, 0.80 (controls 2 of 9), from Y31L N35Y S62D.

A selection of 4 entries from above:

For K36F Q96Y L100C, the assay gave 2.08, 2.19, 2.50 (controls 0 of 9).
For Q96F L100W L102F, the assay gave 1.59, 1.20, 1.28 (controls 5 of 9).
For Q27E K36V R99W, the assay gave nd, 3.88, 5.98 (controls 1 of 9).
For A40T H98V P101S, the assay gave 5.02, 4.99, nd (controls 3 of 9).

For reference, the parent read 0.65 as the reference entry and 1.68 as a member of this library.